{"source": "paper PMC4815068", "about": "“A phase I study of high-dose rosuvastatin with standard dose erlotinib in patients with advanced solid malignancies” (Journal of Translational Medicine, 2016)", "origin": "cited, not measured here", "key": {"[1]": {"test_system": "recurrent SCC patients", "settings": "× 21 days in a 28-day cycle, recurrent SCC n = 26; cited from earlier work"}, "[2]": {"test_system": "SCC, NSCLC and colon cancer cell lines", "settings": "concentrations between 1 and 10 μM; cited from earlier work"}, "[3]": {"test_system": "patients with solid tumors", "settings": "1-week of consecutive dosing, 3-week break every 28-day cycle, n = 88; cited from earlier work"}}}
{"compound": "CC[C@H](C)C(=O)O[C@H]1C[C@@H](C)C=C2C=C[C@H](C)[C@H](CC[C@@H]3C[C@@H](O)CC(=O)O3)[C@H]21", "note": "[lovastatin]", "values": [{"measurement": "MTD of lovastatin", "setting": "[1]", "value": 7.5, "unit": "mg/kg/day"}, {"measurement": "Cytotoxicity of combination treatment with lovastatin and EGFR-TKIs", "setting": "[2]", "value": "synergistic cytotoxicity"}, {"measurement": "MTD of lovastatin monotherapy", "setting": "[3]", "value": 25, "unit": "mg/kg/day"}]}
